{"source": "patent US20230158165A1", "about": "“TREGITOPE CONSTRUCTS USEFUL IN THE PREVENTION AND TREATMENT OF TYPE 1 DIABETES” (EPIVAX, INC., priority 2020, published 2023)", "test_system": "female C57BL/6 mice immunized with ovalbumin (OVA)", "test": "Response to OVA immunization after HSA-Tregitope conjugate or free-maleimide-Tregitope treatment", "type": "in vivo", "settings": "splenocytes stimulated with OVA, Day 17"}
{"substance": "HSA: recombinant human serum albumin carrier, HSA-only control group", "values": [{"measurement": "IFNγ production (IFNγ/IL2 and IFNγ/IL17 fluorospot assays)", "result": "inhibited less"}]}
